{"source": "patent US20010014345A1", "about": "“MATERIAL, METHOD AND APPARATUS FOR INHIBITING BACTERIAL GROWTH IN AN AQUEOUS MEDIUM” (priority 1995, published 2001)", "assay": "Partition coefficients between octanol and water by UV/visible absorption", "data": [{"substance": "5-chloro-2-n-octyl-isothiazolin-3-one", "values": [{"measurement": "P (partition coefficient between octanol and water)", "setting": "25° C., UV/visible absorption", "result": "> 2.75"}, {"measurement": "Log P", "setting": "not marked # (not calculated)", "result": "> 2.75"}]}]}
